## Measured affinities in a library of Ab-14 light chain variants

Source: Li et al. 2023 (doi:10.1038/s41467-023-39022-2), MIT Lincoln Laboratory and A-Alpha Bio; data file from the FLAb repository.

Target peptide (SARS-CoV-2 spike, HR2 region): PDVDLGDISGINAS

Parent scFv Ab-14: VH joined to VL by the linker GGGGSGGGGSGGGGS. Changes lie in the light chain CDRs alone.
VH: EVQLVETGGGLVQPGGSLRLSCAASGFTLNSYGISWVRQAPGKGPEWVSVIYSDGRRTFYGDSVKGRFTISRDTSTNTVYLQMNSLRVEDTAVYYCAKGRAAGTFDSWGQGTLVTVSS
VL: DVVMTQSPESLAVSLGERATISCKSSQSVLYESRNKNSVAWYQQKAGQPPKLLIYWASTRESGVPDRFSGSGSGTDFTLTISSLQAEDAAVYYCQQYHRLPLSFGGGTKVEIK

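Phage display of a naive human antibody library on the peptide gave the parent. These sequences belong to a second round, designed from the earlier measurements on random variants of the parent. Group labels follow the data file (Ctrl: baseline library sampled from a position-specific scoring matrix, with some repeated check sequences; GP: Gaussian process model; HC: hill climbing; Gen: genetic algorithm; Gibbs: Gibbs sampling; a sequence that several methods proposed may carry one label only). Affinity was read by AlphaSeq, a pooled yeast mating assay with surface-displayed partners. The frequency of each diploid, read from paired DNA barcodes, reflects how well the two displayed proteins bind. A regression on co-assayed BCL2-family reference pairs converts the normalised counts of each replicate to an apparent Kd. The assay was run in six technical replicates.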

Positions count from residue 1 of the parent VL; S25F puts F in place of S. Variants here have at most six changes. Kd is apparent (estimated from mating counts) and averaged on the log scale over replicates with a signal. Smaller is tighter. "nd" means that the variant was in the library but no mating with the target was seen in any replicate; the authors take this as a sign of poor binding, and no number exists. Entries are sorted by rising average, undetected variants last.

S25F/S26Y/V29Y/W56N [GP_Gen]: 310 pM (6 of 6 replicates; controls 1 of 18).
V29M/L30P/W56E [Ctrl]: 320 pM (6 of 6 replicates; controls 0 of 18).
S25V/R34G/N35T/W56N/T59A [GP_HC]: 340 pM (6 of 6 replicates; controls 0 of 18).
S25V/V29Q/S38N/W56N/T59Q [GP_Gen]: 400 pM (6 of 6 replicates; controls 3 of 18).
S25L/S26E/L30P/W56N/E61M [GP_Gen]: 460 pM (2 of 6 replicates; controls 0 of 18).
V29W/W56E/S62N [GP_HC]: 480 pM (6 of 6 replicates; controls 2 of 18).
K24A/S25I/S28G/V29W/W56G/S62D [GP_HC]: 540 pM (6 of 6 replicates; controls 2 of 18).
S25L/V29M/W56N/S62L [GP_Gen]: 560 pM (6 of 6 replicates; controls 0 of 18).
S25V/V29H/S33E/S38N/W56N/T59D [GP_Gibbs]: 620 pM (6 of 6 replicates; controls 2 of 18).
S25L/V29D/W56D/Q96D [GP_Gen]: 680 pM (6 of 6 replicates; controls 0 of 18).
S25L/V29M/N35M/W56N/T59Q [GP_Gen]: 710 pM (6 of 6 replicates; controls 0 of 18).
S25L/S33Q/W56N/E61C [GP_Gen]: 970 pM (6 of 6 replicates; controls 0 of 18).
S25V/V29N/W56N/S103M [GP_Gen]: 1.2 nM (6 of 6 replicates; controls 2 of 18).
S25V/S26Q/W56N/T59Y [GP_Gen]: 1.3 nM (6 of 6 replicates; controls 1 of 18).
V29N/W56A [Ctrl]: 1.5 nM (6 of 6 replicates; controls 2 of 18).
S25L/V29E/W56N/S62Y [GP_Gen]: 1.5 nM (6 of 6 replicates; controls 1 of 18).
S25L/S26Q/L30Q/W56N/E61L [GP_Gen]: 1.5 nM (6 of 6 replicates; controls 0 of 18).
S25L/Q27G/W56G [GP_Gen]: 1.5 nM (6 of 6 replicates; controls 0 of 18).
Q27I/K36E/W56E/S62Q [GP_HC]: 1.5 nM (6 of 6 replicates; controls 3 of 18).
S25L/S26E/W56G [GP_Gen]: 1.8 nM (6 of 6 replicates; controls 1 of 18).
S25L/Q27G/V29M/W56H [GP_Gen]: 1.9 nM (6 of 6 replicates; controls 2 of 18).
Q27I/V29Y/L30E/R34M/W56E [GP_HC]: 2.1 nM (6 of 6 replicates; controls 0 of 18).
S25F/L30M/W56Q [Ctrl]: 2.2 nM (6 of 6 replicates; controls 0 of 18).
K24I/S25A/S26V/V29W/W56G [GP_HC]: 3.1 nM (6 of 6 replicates; controls 2 of 18).
S25L/S26R/V29T/K36P/T59V [GP_HC]: 3.2 nM (6 of 6 replicates; controls 0 of 18).
Y31I/R34E [Ctrl]: 3.5 nM (6 of 6 replicates; controls 1 of 18).
Y31T/A57G/E61L [Ctrl]: 3.6 nM (1 of 6 replicates; controls 0 of 18).
R34L/W56A/L102F [Ctrl]: 3.8 nM (6 of 6 replicates; controls 0 of 18).
S25V/V29H/W56N/S62V [GP_Gen]: 5.0 nM (6 of 6 replicates; controls 0 of 18).
K24R/W56S/R99Q/S103Y [Ctrl]: 9.0 nM (6 of 6 replicates; controls 1 of 18).
S26D/S28A/R34G/H98Q/P101S [Ctrl]: 10 nM (2 of 6 replicates; controls 0 of 18).
V29W/Y31E/S62A [Ctrl]: 13 nM (6 of 6 replicates; controls 1 of 18).
K36Q/S38P/W56G/S103V [Ctrl]: 20 nM (6 of 6 replicates; controls 0 of 18).
V29M/R34H [Ctrl]: 24 nM (6 of 6 replicates; controls 1 of 18).
Y31D/R99S [Ctrl]: 27 nM (2 of 6 replicates; controls 0 of 18).
S25F/L30T [Ctrl]: 33 nM (6 of 6 replicates; controls 0 of 18).
K36G/W56M/E61W [Ctrl]: 43 nM (6 of 6 replicates; controls 1 of 18).
L30I/K36Q [Ctrl]: 110 nM (1 of 6 replicates; controls 0 of 18).
S25W/S26E/V29D/L30N [Ctrl]: 150 nM (2 of 6 replicates; controls 0 of 18).
L30T/Y31Q/N37G [Ctrl]: 160 nM (5 of 6 replicates; controls 1 of 18).
S33N/L100F [Ctrl]: 260 nM (1 of 6 replicates; controls 0 of 18).
R34N/S58A/H98P/S103D [Ctrl]: 390 nM (4 of 6 replicates; controls 0 of 18).
Q27T/Y31W/N35D/W56E/Q95S [Ctrl]: nd (0 of 6 replicates; controls 0 of 18).

Excerpt, the final 2 entries:

changes,group,Kd,detected,control signals
R34N/S58A/H98P/S103D,Ctrl,390 nM,4/6,0/18
Q27T/Y31W/N35D/W56E/Q95S,Ctrl,nd,0/6,0/18

Of ten entries with the parent sequence, four were seen in most replicates (averages 2.2 nM to 240 nM), three in one and three in none, so single entries are noisy. The range of this assay differs from that of the first round, and the authors advise against merging the two. Empty control strains, which show no peptide, gave a signal in 4% of pairings with all light chain designs; the median was 430 nM and 95% of these signals were weaker than 38 nM. No background was subtracted. For each scFv, signals with the empty controls are counted beside the result. The authors averaged sequences with at least three values out of six and counted those with two or fewer as poor binders.